In the library only some 1.7% were active in any assay of this set; here they are far more common.
CDK5 p35 inh: CDK5/p35 (human) kinase inhibition. Q00535+Q15078. Recombinant CDK5/p35, ADP-Glo luminescence, 60 min. inhibition, % at 10 µM. 330,000 compounds, 0.01% hits. AID 488839;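 active means highest replicate inhibition of at least 50% and at least 75% of replicates reaching 50%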;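 further: plate controls were DMSO neutral control for no effect and GW8510 at 10 µM for full effect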
dFosB activator: activators of mouse delta FosB homodimer | 340,000 compounds, 0.99% hits | activation, % at 25 µM | P13346 | purified delta FosB, TAMRA-CDK5 oligo fluorescence polarization; percent of positive-control signal above neutral wells;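 active means mean activation above about 17%, with every replicate also reaching it, limit read from the data, passing the limit was not always enough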
DYRK1A inh: Dyrk1A (rat) kinase inhibition. ADP-Glo luminescence, NFATc1 peptide. inhibition, % at 12.5 µM. 310,000 compounds, 0.43% hits. AID 504441; in the data active means inhibition above about 50%;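 further: plate controls were vehicle with enzyme for no effect and no enzyme for full effect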
CAL PDZ FP-1: CAL PDZ (human) peptide binding inhibition | Q9HD26 | purified CAL PDZ, TMR-peptide fluorescence polarization, 1 h | inhibition, % at 24.9 µM | 300,000 compounds, 0.92% hits | AID 602252;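 active means mean inhibition of at least 30% with at least half of replicates also reaching 30%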;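 further: 0% = DMSO neutral control and 100% = excess unlabeled competitor peptide PRC23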
CAL PDZ FP-2: blocks peptide binding to human CAL PDZ domain; Q9HD26; purified CAL PDZ, TMR-peptide fluorescence polarization, 1 h; inhibition, % at 20 µM; 330,000 compounds, 0.02% hits;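 active means highest replicate inhibition of at least 40%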;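 further: plate controls were DMSO neutral control wells for no effect and unlabeled competitor peptide control wells for full effect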
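material = purified tagged CAL PDZ domain construct (CerCALP) | buffer or medium = sodium phosphate/NaCl buffer pH 7.4 with TCEP, IgG, Thesit | reagent = TMR-labelled reporter peptide T*-PRC34 bound in PDZ groove | incubation = 1 h room-temperature incubation prior to read | measured by = fluorescence polarization (mP) | evaluation = percent inhibition from loss of millipolarization | control set = unlabelled peptide and DMSO controls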
Yeast UUG start: alters start codon recognition fidelity in yeast; S. cerevisiae UUG-firefly luciferase reporter, luminescence/redox ratio; activity score, % at 18.7 µM; actives 0.13% (n = 350,000); AID 602363;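 active = replicate mean at a twofold rise or more, about +100% in these data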;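 also: firefly luciferase made from a UUG start codon reports start codon fidelity; reporter light over untreated wells divided by growth signal over untreated wells; some hits fall short of that in this replicate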
Starred values were filed as active, the others as inactive; nt = no result.

SMILES	CDK5 p35 inh	dFosB activator	DYRK1A inh	CAL PDZ FP-1	CAL PDZ FP-2	Yeast UUG start
CN1[C@@H]2c3ccc(-c4ccncc4)c(=O)n3C[C@@H]2[C@@H](CO)[C@@H]1C(=O)NCCc1ccccc1	nt	nt	nt	nt	nt	5.0
C[C@@H]1CN([C@H](C)CO)C(=O)c2cc(NS(=O)(=O)c3cccs3)ccc2O[C@@H](C)CCCCO[C@@H]1CN(C)S(=O)(=O)c1ccc(F)cc1	nt	nt	nt	nt	nt	-6.2
C[C@@H]1CCCCO[C@@H](CN(C)Cc2ccc(C(=O)O)cc2)[C@@H](C)CN([C@H](C)CO)C(=O)c2cc(NS(=O)(=O)c3ccccc3)ccc2O1	nt	nt	nt	nt	nt	-1.8
CN(C)c1ccc(/C=C/c2cccc[n+]2[O-])cc1	1.2	-5.1	-8.5	nt	-1.3	-21.1
CN(C)c1ccc(/C=C/c2ccc3c4ccccc4ccc3[n+]2-c2ccccc2)cc1	17.2	112.5*	27.2	-4.6	7.5	94.9
CC1CCN(Cc2nnnn2CCCC(=O)NCCc2cnn(C)c2)CC1	-1.9	0.6	-3.8	113.2*	-2.7	6.3
COCC#Cc1ccc2c(c1)O[C@@H](CN(C)S(=O)(=O)c1cccc(F)c1)[C@H](C)CN([C@@H](C)CO)S2(=O)=O	nt	nt	nt	nt	nt	-6.1
CCN1CC2=C(OC(N)=C(C#N)C2c2cccs2)/C(=C/c2cccs2)C1 (configuration not stated)	0.4	-8.0	1.0	43.4*	-0.3	-6.1
C[C@H](CO)N1C[C@H](C)[C@H](CN(C)S(=O)(=O)c2ccc(Cl)cc2)OCCCC[C@H](C)Oc2ccc(NS(=O)(=O)c3ccc(Cl)cc3)cc2C1=O	nt	nt	nt	nt	nt	-12.3
O=C(C[C@H]1CC[C@@H](NC(=O)C2CC2)[C@H](CO)O1)NCCCN1CCOCC1	nt	nt	nt	nt	nt	-3.9
CC(=O)Nc1sc(NC(=O)c2ccc(C)cc2)nc1-c1cccs1	-1.4	5.3	-0.8	73.4*	nt	4.0
COc1ccc(C2NCCc3cc(OC)c(OC)cc32)cc1OC (configuration not stated)	-0.2	-6.5	2.1	59.5*	0.6	0.3
COc1cc2c(cc1OC)C(c1ccc(Br)cc1)NCC2 (configuration not stated)	nt	nt	nt	nt	nt	-14.1
O=C(N[C@@H]1CC[C@@H](CCNC(=O)C2CC2)O[C@@H]1CO)c1ccccn1	nt	nt	nt	nt	nt	-9.6
O=C1CCC[C@@H]2c3[nH]c4ccccc4c3CCN12	nt	nt	nt	nt	nt	-12.6
CN(CC(=O)Nc1ccc(F)cc1)C(=O)c1cn(-c2ccccc2)nc1-c1cccs1	-0.1	-5.4	nt	31.4*	-1.4	-1.7
COc1ccccc1CNC(=O)C[C@H]1C[C@H]2c3cc(NS(C)(=O)=O)ccc3O[C@H]2[C@H](CO)O1	nt	nt	nt	nt	nt	-10.3
N#Cc1c(NCCN)nc(NCc2ccccc2)c2c1CCN(Cc1ccccc1)C2	2.6	23.6*	6.6	0.5	0.7	nt
C=CCNc1nc(NCc2ccccc2)c(C#N)c2c1CN(C)CC2	1.3	4.4	-2.2	3.0	nt	-18.3
CCCC#Cc1cnc2c(c1)C(=O)N([C@H](C)CO)C[C@H](C)[C@H](CN(C)Cc1ccncc1)O2	nt	nt	nt	nt	nt	-8.5
C=CCNc1oc(-c2ccco2)nc1S(=O)(=O)c1ccccc1	-0.4	-12.7	nt	nt	-0.7	-6.2
C=CCNc1oc(-c2cccs2)nc1S(=O)(=O)c1ccccc1	1.2	-6.1	-5.9	38.6*	3.7	6.9
COc1ccc(NC(=O)COC(=O)C2CCN(S(=O)(=O)c3cccs3)CC2)cc1	0.1	-5.9	-0.2	1.9	-0.9	nt
NC(=O)c1ccc(NC(=O)COC(=O)C2CCN(S(=O)(=O)c3cccs3)CC2)cc1	-0.1	-2.1	nt	129.6*	-0.2	-3.7
O=C(Nc1ccccc1Oc1ccsc1C(=O)O)c1ccccc1	1.5	2.1	-7.9	39.2*	-2.6	nt
CN(C)C(=O)c1ccc(-c2ccc3c(c2)[C@H]2[C@H](CCN2C(=O)c2cnccn2)[C@@H](CO)N3)cc1	nt	nt	nt	nt	nt	-6.0
CC(C)Oc1ccc2nnnn2n1	0.5	3.6	-2.1	130.3*	nt	12.4
CN(C)S(=O)(=O)c1cc(NC(=O)Cn2ccsc2=N)ccc1Cl	-0.6	-5.0	-2.8	101.0*	0.3	nt
COCC(=O)N1C[C@H](C)[C@H](OC)CN(C)C(=O)c2cc(NC(=O)c3cnccn3)ccc2OC[C@H]1C	nt	nt	nt	nt	nt	4.2
Nn1c(SCC(=O)Nc2ccc(S(N)(=O)=O)cc2)nnc1-c1ccco1	-0.1	-1.7	1.6	36.6*	-0.8	-8.9

4 entries from above in another layout.
CDK5 p35 inh,dFosB activator,DYRK1A inh,CAL PDZ FP-1,CAL PDZ FP-2,Yeast UUG start,SMILES
-0.1,-1.7,1.6,36.6*,-0.8,-8.9,Nn1c(SCC(=O)Nc2ccc(S(N)(=O)=O)cc2)nnc1-c1ccco1
1.5,2.1,-7.9,39.2*,-2.6,nt,O=C(Nc1ccccc1Oc1ccsc1C(=O)O)c1ccccc1
0.1,-5.9,-0.2,1.9,-0.9,nt,COc1ccc(NC(=O)COC(=O)C2CCN(S(=O)(=O)c3cccs3)CC2)cc1
-0.4,-12.7,nt,nt,-0.7,-6.2,C=CCNc1oc(-c2ccco2)nc1S(=O)(=O)c1ccccc1

Bioassay records (PubChem BioAssay)
